Assay results published in patent publication US10014546B2 (priority 2012, dated 2018).
Read-outs that look alike come from different tables or passages of the source.

Substance: iron bis-lactate [Fe^III/II(lactate)2]
- E1/2, V vs. RHE (pH 2.6): +0.45 V vs. RHE

Substance: sodium potassium titanium (IV) biscatecholate monogluconate [Ti(catecholate)2(gluconate)^2−/3−]
- E1/2, V vs. RHE (pH 9): −0.60 V vs. RHE
